High-throughput results as filed in PubChem.
Rows were chosen to be rich in hits. Some 3.7% of all compounds tested hit in one or more screens of this group.
A549 viability – A549 cytotoxicity, counter-screen for Nrf2 inhibitors; A549 ARE-Fluc cells, CellTiter-Fluor viability, 18-24 h; Potency, µM (highest dose often 46 µM), most hits filed as inhibitors; hit rate 0.16% among 390,000; AID 504648
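A549 ARE-Fluc cells in 5% FBS OPTI-MEM, 5000 cells/well, rested 2 h then exposed to compounds in concentration-response for 18-24 h at 37 °C. Viability by CellTiter-Fluor fluorescence (Ex 405/Em 525) after 30 min; luciferase luminescence (BugLite, 15 min, RT) read afterwards.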
miR-21 FLuc – miR-21 reporter, rising signal | 340,000 tested, under 10 active | AID 2288 | HeLa miR-21 FLuc reporter, luciferase, 48 h | Potency, µM (titrated, usually from 38.3 µM); active = well fitted rising curve with a large enough effect; inconclusive = small, poorly fitted or top-dose-only effect; inactive = no such curve, though single readings can be large or run the other way;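 further: miR-21 action dims this reporter so a rising signal means less miR-21 action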
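HeLa cells endogenously expressing miR-21, stably carrying CMV-driven firefly luciferase with a downstream miR-21 binding site, 2000 cells/well. Titrations up to approximately 40 uM, 48 hours; luciferase luminescence read.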
p53 reactivation – re-activators of mutant p53; H1299 p53-A138V BP100-luciferase reporter, luminescence, 24 h; Potency, µM (titrated, usually from 92.2 µM), actives largely listed as activators; hit rate 0.063% among 320,000; AID 504706; further: nearly all actives have a fitted effect of over 45% in size
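H1299 (p53-null), stable ts p53-A138V + BP100-Luc; 1000 cells/well, Opti-MEM/10% FBS; cpd 4 pt, 1:5; 24 h, 37 deg C, 5% CO2; detection reagent 10 min RT; luminescence.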
Nrf2 inh – blocks Nrf2 signaling | A549 ARE-Fluc reporter, luciferase luminescence, 18-24 h | Potency, µM (highest dose often 46 µM), actives largely listed as inhibitors | hit rate 2.1% among 360,000 | AID 504444; further: nearly all actives have a fitted effect of over 60% in size
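In this cell-based qHTS, ARE-driven firefly luciferase in A549 cells reports Nrf2 activity; the luminescent signal after BugLite lysis is the measured value, with a prior CellTiter-Fluor read for cell health.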
ClpP mod – qHTS Assay for Activators of ClpP. hit rate 1.9% among 340,000. purified B. subtilis ClpP, FRET peptide cleavage, 20 min. Potency, µM (highest dose often 57.5 µM). ATP-dependent Clp protease proteolytic subunit (Bacillus subtilis (strain 168)), P80244; active means well fitted falling curve with a large enough effect; inconclusive means small, poorly fitted or top-dose-only effect; inactive means no such curve, though single readings can be large or run the other way; further: the source files actives as falling curves though it sought activators and does not explain the sign; nearly all actives have a fitted effect of over 65% in size
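Purified B. subtilis ClpP, 10 microg/mL final in Tris/HCl pH8 with KCl, BSA, glycerol and Tween-20, cleaved an Abz/nitrotyrosine-quenched decapeptide. Fluorescence (ex 320, em 430) was read at 0 and 20 min at room temperature. Delta was normalized to 5.8 microM ADEP and DMSO/no-enzyme controls.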
Nrf2 ARE act – Nrf2 pathway activation. hit rate 0.31% among 410,000. Potency, µM (titrated, usually from 46.1 µM), actives largely listed as activators. AREc32 ARE-luciferase reporter (MCF7-derived line), luminescence, 24 h; further: nearly all actives have a fitted effect of over 65% in size
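Cells of the AREc32 ARE-luciferase line are plated in OPTI-MEM containing 5% FBS and left overnight at 37 deg C. Compounds are pinned in, incubation continues 24 hr, and firefly luciferase signal is then measured.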
Hits are given with their value; 0 = inactive; ? = inconclusive; - = not tested or not shown; [ ] = remark or other dose. Unless noted, the call rests on the fitted dose curve; in most records, active means well fitted curve in the direction sought with a large enough effect; inconclusive means small, poorly fitted or top-dose-only effect, or another doubt; inactive means no such curve, though single readings can be large; an effect the other way counts as inactive or inconclusive.

SMILES	A549 viability	miR-21 FLuc	p53 reactivation	Nrf2 inh	ClpP mod	Nrf2 ARE act
CC(=O)Nc1cccc(NC(=O)c2ccco2)c1	0	0	0	0	0	0
O=C(Nc1cccc(F)c1)c1ccco1	0	0	0	0	0	10µM
O=C(Nc1ccccc1O)c1cccc(NC(=O)c2ccco2)c1	0	0	0	0	0	7.9µM
O=C(c1ccccc1)c1cccc(NC(=O)c2ccco2)c1	0	0	?	0	0	0
COc1ccc(CNC(=O)CCCc2cn(C)c3ccccc23)c(OC)c1	0	0	-	-	?	0
CCCCCCn1c(C)nc2c(c1=O)c1nc3ccccc3nc1n2/N=C/c1ccco1	?	0	0	23µM	0	0
Nc1c(C(=O)NC2CCCCC2)c2nc3ccccc3nc2n1/N=C/c1ccco1	-	0	0	-	-	-
Cc1ccc(S(=O)(=O)c2c(N)n(/N=C/c3ccco3)c3nc4ccccc4nc23)cc1C	0	0	0	?	14µM	0
Cc1cccc(S(=O)(=O)c2c(N)n(-c3ccccc3)c3nc4ccccc4nc23)c1	?	0	0	?	14µM	0
Cc1ccc(-n2c(N)c(S(=O)(=O)c3ccccc3)c3nc4ccccc4nc32)cc1	0	0	0	0	-	0
Cc1ccc(S(=O)(=O)c2c(N)n(/N=C/c3ccco3)c3nc4ccccc4nc23)cc1	0	0	0	?	8.9µM	0
Cc1cccc(S(=O)(=O)c2c(N)n(/N=C/c3ccco3)c3nc4ccccc4nc23)c1	0	0	0	?	3.5µM	0
COc1ccc(-c2nc(NC(=O)CSc3nnc(C)s3)ns2)cc1	0	0	?	-	18µM	0
Cc1ccc(-c2nc(NC(=O)CSc3nnc(C)s3)ns2)cc1	0	0	0	0	0	0
Cc1cc2nc(-c3ccc(OCc4ccccc4C)cc3)cc(C(F)(F)F)n2n1	0	0	-	0	0	0
Oc1ccc(-c2cnc(-c3ccc(O)cc3)nc2)cc1	0	0	14µM	?	-	0
O=C(OCC#CCSc1nnc(-c2cccc3ccccc23)o1)c1cc2ccccc2s1	0	-	-	0	-	-
CCCCSc1ccc2nc(-c3ccc(C#N)cc3)cn2c1	0	0	?	?	?	0
CCCSc1ccc2nc(-c3ccccc3)cn2c1	0	?	0	?	22µM	0[9.22 µM]
CC1=C(C#N)C(c2ccccc2)C2=C(N1)c1ccccc1C2=O (stereo not given)	?	0	0	23µM	0	0
CC(C)Cc1ccc(/C=C/C(=O)N2CCOCC2)cc1	0	0	0	?	0	0
CC(C)(C)c1ccc(/C=C/C(=O)N2CCOCC2)cc1	0	0	0	?	22µM	0
CC(C)NC(=O)C(c1ccccc1)N1Cc2ccccc2C1=O (stereo not given)	0	0	-	0	0	0
Cc1c(C(=O)O)c(-c2ccccc2)nn1-c1ccccc1	0	0	0	-	16µM	0
CC1CCCCN1S(=O)(=O)c1ccc(C(=O)Nc2nnc(-c3ccncc3)o2)cc1 (stereo not given)	0	?	0	?	-	0
SMILES	A549 viability	miR-21 FLuc	p53 reactivation	Nrf2 inh	ClpP mod	Nrf2 ARE act
COc1ccc(-c2nnc(NC(=O)c3ccc(S(=O)(=O)N4COCC4(C)C)cc3)o2)cc1	0	0	0	18µM	0	0
CCOC(=O)C(=CNc1cccnc1Oc1ccc(C)c2c1CCC2)C(=O)OCC	0	0	0	18µM	0	0
O=C(Nc1ccc(Cl)c(C(F)(F)F)c1)c1ccncc1	0	0	0	0	-	0
CNC(=O)c1cc(Oc2ccc(NC(=O)Nc3ccc(Cl)c(C(F)(F)F)c3)cc2)ccn1	?	-	0	26µM	0	0
CCOC(=O)c1sc(Nc2nc3c(F)cccc3s2)cc1C	0	0	?	0	8.9µM	0[9.22 µM]
CCOC(=O)c1c(NC(=O)Nc2ccccc2)sc(C)c1C	0	0	0	0	20µM	0
CCOC(=O)c1c(NC(=O)CSc2ccccc2C(=O)O)sc(C)c1C	0	0	0	0	16µM	0
CCOC(=O)c1sc(Nc2nc3ccc(OC)cc3s2)cc1C	0	0	?	0	-	0
CCOC(=O)c1sc(NC(=O)Nc2cccc(Cl)c2)cc1C	?	0	?	0	32µM	0
CCOC(=O)Nc1sc(C)c(C)c1C(=O)OCC	0	0	0	0	0	0
COc1ccc(OC)c(NC(=O)c2c(C)oc3ncnc(N4CCOCC4)c23)c1	0	0	-	?	0	0
O=C(CCCCCn1c(=O)[nH]c2ccsc2c1=O)NCc1ccccc1	0	0	-	0[9.27 µM]	0	0
Cc1ccc(N(C)C(=O)Cn2ncc3c([nH]c4ccccc43)c2=O)cc1C	0	0	-	0	0	0
Cc1ccc(C(C)C)c(OCC(=O)NCC2(N3CCOCC3)CCCCC2)c1	0	0	-	?	0	0
Cc1ccc(N(C)S(=O)(=O)c2ccc3[nH]c(=O)ccc3c2)cc1	0	0	-	0	0	0
CCOc1ccc(-c2nnc(-c3snc(-c4ccc(F)cc4)c3N=CN(C)C)o2)cc1	0	0	0	0	28µM	0
Cc1ccc(N2C(=O)N(CC(=O)Nc3c(C)cc(C)cc3Cl)C(=O)C2C)cc1 (stereo not given)	0	-	0	0	-	0
O=C(Nc1nnc(C2CC2)s1)c1ccc(Cl)c(S(=O)(=O)N2CCc3ccccc3C2)c1	0	0	0	23µM	0	0
Cc1c(C(=O)Nc2ccc(F)c(Cl)c2)oc2ccc(S(=O)(=O)N(C)C3CCCCC3)cc12	0	0	-	-	?	0
COc1ccc(NC(=O)c2oc3ccc(S(=O)(=O)N(C)C4CCCCC4)cc3c2C)cc1Cl	0	0	-	-	28µM	0
N#C/C(=C/c1ccc(N2CCCCC2)cc1)c1cccc(F)c1	0	0	?	?	0	0
N#C/C(=C/c1ccc(N2CCCCC2)o1)c1cccc(F)c1	0	0	?	?	0	14µM
N#C/C(=C/c1ccc(N2CCCCCC2)o1)c1ccc(Cl)cc1	?	?	0	0	0	11µM
NNC(=O)c1ccc(CSc2cccc3cccnc23)cc1	0	0	0	0	-	0
Cc1cccc(CSc2cccc3cccnc23)c1	0	?	?	0	?	22µM
SMILES	A549 viability	miR-21 FLuc	p53 reactivation	Nrf2 inh	ClpP mod	Nrf2 ARE act
CCN(CC)C(=O)Sc1cccc2cccnc12	0	0	0	0	28µM	?
COc1ccc(CNC(=O)CSc2cccc3cccnc23)cc1	0	0	0	0	-	0
CCOC(=O)CSc1cccc2cccnc12	0	0	?	-	16µM	?
O=C(CSc1cccc2cccnc12)NCc1ccco1	0	0	0	0	25µM	0
CCCOc1ccc(C2C(=O)N(C3CCCCCC3)CC(=O)N2CCCOCC)cc1OC (stereo not given)	0	0	-	-	0	0
O=C(Nc1ccccc1)c1sc2cc(C(F)(F)F)cnc2c1-c1cccs1	0	0	0	0	32µM	0
